Publication PMC11997881, “Comprehensive Characterization of Bruton’s Tyrosine Kinase Inhibitor Specificity, Potency, and Biological Effects: Insights into Covalent and Noncovalent Mechanistic Signatures” (ACS Pharmacology & Translational Science, 2025)

Amino acid sequences for entries named in this document (tags omitted).
UniProt Q06187, whole entry C481S: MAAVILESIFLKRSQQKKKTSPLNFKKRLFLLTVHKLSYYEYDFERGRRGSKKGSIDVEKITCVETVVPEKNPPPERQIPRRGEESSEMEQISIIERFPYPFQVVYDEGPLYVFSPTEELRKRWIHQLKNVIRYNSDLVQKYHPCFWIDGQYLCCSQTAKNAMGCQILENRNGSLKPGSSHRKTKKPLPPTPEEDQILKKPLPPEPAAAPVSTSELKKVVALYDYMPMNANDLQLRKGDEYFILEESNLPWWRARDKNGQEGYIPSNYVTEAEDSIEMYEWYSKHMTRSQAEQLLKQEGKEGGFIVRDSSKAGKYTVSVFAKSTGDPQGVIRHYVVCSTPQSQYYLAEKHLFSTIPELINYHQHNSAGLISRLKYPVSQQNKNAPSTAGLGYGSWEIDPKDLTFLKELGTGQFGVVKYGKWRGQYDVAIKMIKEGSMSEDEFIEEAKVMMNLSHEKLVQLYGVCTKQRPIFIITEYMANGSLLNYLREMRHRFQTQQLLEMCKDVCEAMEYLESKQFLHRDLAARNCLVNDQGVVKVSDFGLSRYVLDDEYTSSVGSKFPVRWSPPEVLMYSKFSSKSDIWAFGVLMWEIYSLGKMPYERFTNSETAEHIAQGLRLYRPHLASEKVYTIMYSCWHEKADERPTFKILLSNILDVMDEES

Assays:
BTK [1] = target: T1, BTK (Homo sapiens, UniProt Q06187); assay: scanMAX binding POC, BTK; conditions: 1 μM; zero POC = competition comparable to positive control
T1 construct: host or cells: transiently transfected HEK293 cells

BTK C481S [2] = target: T2, BTK C481S (Homo sapiens, UniProt Q06187, C481S); assay: KdELECT competition binding, mutant BTK C481S
T2 construct: made in house; host or cells: transiently transfected HEK293 cells (unpurified extract)

wild-type BTK = target: T3, wild-type BTK (Homo sapiens, UniProt Q06187); assay: KdELECT competition binding, wild-type BTK
T3 construct: made in house; host or cells: transiently transfected HEK293 cells (unpurified extract)

BTK C481S [3] = conditions: average of literature values; read-out: average published Kd for BTK C481S; cited from earlier work
BTK [4] = conditions: wild-type BTK; average of literature values; read-out: average published Kd for BTK; cited from earlier work
[5] = ATP-independent in vitro binding, 25 °C, read-out: Kd for BTK C481S
[6] = N = 1, technical duplicate, read-out: average in-house Kd for BTK C481S
[7] = category by Kd for BTK C481S, read-out: potency for BTK C481S
[8] = ATP-independent in vitro binding, 25 °C, read-out: Kd for wild-type BTK
[9] = category by Kd for wild-type BTK, read-out: potency for BTK
[10] = wild-type BTK, average of N replicates, each in technical duplicate, read-out: average in-house Kd for BTK

C[C@H]1CN(C2COC2)CCN1c1ccc(Nc2cc(-c3ccnc(N4CCn5c(cc6c5CC(C)(C)C6)C4=O)c3CO)cn(C)c2=O)nc1 [Fenebrutinib]
BTK binding POC (BTK [1]): 0% of control | Kd (BTK C481S [2]; [5]): 0.17 nM | Kd (BTK C481S [2]; [6]): 0.17 nM | Kd (BTK C481S [2]; [7]): < 1 nM | Kd (wild-type BTK; [8]): 1.5 nM | Kd (wild-type BTK; [9]): 1 to 10 nM | Kd (wild-type BTK; [10]): 1.5 nM | Kd (BTK C481S [3]): 5.1 nM | Kd (BTK [4]): 0.2 nM

C=CC(=O)Nc1cccc(Nc2nc(Nc3ccc(OCCOC)cc3)ncc2F)c1 [Spebrutinib]
Kd for BTK C481S (BTK C481S [2]; ATP-independent in vitro binding, 25 °C): did not demonstrate any binding at the concentrations tested | Kd (BTK C481S [2]; [5]): > 1000 nM | Kd (BTK C481S [2]; [6]): > 1000 nM | Kd (BTK C481S [2]; [7]): > 1000 nM | Kd (wild-type BTK; [8]): 2.3 nM | Kd (wild-type BTK; [9]): 1 to 10 nM | Kd (wild-type BTK; [10]): 2.3 nM

Like-named read-outs stand apart in the source and are kept apart here.
